Source: patent publication US20240316176A1

Target: native S domain protein with the hinge of GII.4 NoV strain VA387 (GST removed by thrombin) (norovirus GII.4 strain VA387)
Assay: gel filtration, self-assembly

Substance: native S domain protein with the hinge of GII.4 NoV strain VA387 (GST removed by thrombin)
- portion of the protein in the particle/complex peak: < 25%
